Test results reported in patent publication US4912133A, “BU-3862T antitumor antibiotic” (priority 1988, dated 1990).
Read-outs that look alike come from different tables or passages of the source.

Key:
P388 leukemia = conditions: Q4D × 3
[1] = Table 7, 1.0 mg/kg/day ip, Q4D × 3
[2] = Table 7, 2.0 mg/kg/day ip, Q4D × 3
[3] = Table 7, 4.0 mg/kg/day ip, Q4D × 3
[4] = Table 7, 8.0 mg/kg/day ip, Q4D × 3
[5] = Table 6, 0.5 mg/kg/day ip, Q4D × 3
[6] = Table 6, 1.0 mg/kg/day ip, Q4D × 3
[7] = Table 6, 2.0 mg/kg/day ip, Q4D × 3
[8] = Table 6, 0.25 mg/kg/day ip, Q4D × 3
[9] = Table 6, 4.0 mg/kg/day ip, Q4D × 3
[10] = Table 6, 8.0 mg/kg/day ip, Q4D × 3

Structure (SMILES): CC(C)CCCCC(=O)N[C@@H](CO)C(=O)NC(CC(C)C)C(=O)C1(CO)CO1 (stereo partly shown) [Dihydro-BU-3862T]
- MST (median survival time) (B16 melanoma; [1]): 19.5 days
- T/C (B16 melanoma; [1]): 115%
- MST (median survival time) (B16 melanoma; [2]): 21.0 days
- T/C (B16 melanoma; [2]): 124%
- MST (median survival time) (B16 melanoma; [3]): 20.0 days
- T/C (B16 melanoma; [3]): 118%
- MST (median survival time) (B16 melanoma; [4]): 22.5 days
- T/C (B16 melanoma; [4]): 132%

Structure (SMILES): CO[C@@]12[C@H](COC(N)=O)C3=C(C(=O)C(C)=C(N)C3=O)N1C[C@@H]1N[C@@H]12 [Mitomycin C, reference compound]
- MST (median survival time) (L1210 leukemia; 0.25 mg/kg/day ip, QD × 3): 10.0 days
- MST (median survival time) (P388 leukemia; 1.0 mg/kg/day ip): 15.0 days
- MST (median survival time) (B16 melanoma; [5]): 15.0 days
- MST (median survival time) (B16 melanoma; [6]): 18.5 days
- T/C (B16 melanoma; [6]): 154%
- MST (median survival time) (B16 melanoma; [7]): 29.0 days
- T/C (B16 melanoma; [7]): 242%
- MST (median survival time) (B16 melanoma; Table 7, 0.25 mg/kg/day ip, Q4D × 3): 20.0 days
- MST (median survival time) (B16 melanoma; [1]): 23.0 days
- MST (median survival time) (B16 melanoma; [2]): ≥ 33.0 days
- T/C (B16 melanoma; [2]): ≥ 194%

Structure (SMILES): C=C(C)CC(NC(=O)[C@H](COC(C)=O)NC(=O)CCCCC(C)C)C(=O)C1(COC(C)=O)CO1 (stereo partly shown) [Diacetyl-BU-3862T]
- MST (median survival time) (B16 melanoma; [1]): 20.0 days
- T/C (B16 melanoma; [1]): 118%
- MST (median survival time) (B16 melanoma; [2]): 20.5 days
- T/C (B16 melanoma; [2]): 121%
- MST (median survival time) (B16 melanoma; [3]): 23.0 days
- T/C (B16 melanoma; [3]): 135%
- MST (median survival time) (B16 melanoma; [4]): 24.0 days
- T/C (B16 melanoma; [4]): 141%

Structure (SMILES): C=C(C)CC(NC(=O)[C@H](CO)NC(=O)CCCCC(C)C)C(=O)C1(CO)CO1 (stereo partly shown) [BU-3862T]
- MST (median survival time) (L1210 leukemia; 0.25 mg/kg/day ip, Q3D × 3): 9.5 days
- MST (median survival time) (L1210 leukemia; 0.5 mg/kg/day ip, Q3D × 3): 9.5 days
- MST (median survival time) (L1210 leukemia; 1.0 mg/kg/day ip, Q3D × 3): 10.0 days
- MST (median survival time) (L1210 leukemia; 4.0 mg/kg/day ip, Q3D × 3): Tox.
- MST (median survival time) (P388 leukemia; 0.5 mg/kg/day ip): 13.0 days
- T/C (P388 leukemia; 0.5 mg/kg/day ip): 124%
- MST (median survival time) (P388 leukemia; 1.0 mg/kg/day ip): 11.5 days
- T/C (P388 leukemia; 1.0 mg/kg/day ip): 110%
- MST (median survival time) (P388 leukemia; 4.0 mg/kg/day ip): 11.0 days
- T/C (P388 leukemia; 4.0 mg/kg/day ip): 105%
- MST (median survival time) (B16 melanoma; Table 6, 0.13 mg/kg/day ip, QD × 9): 18.5 days
- MST (median survival time) (B16 melanoma; [8]): 14.0 days
- T/C (B16 melanoma; [8]): 117%
- MST (median survival time) (B16 melanoma; Table 6, 0.25 mg/kg/day ip, QD × 9): 20.0 days
- MST (median survival time) (B16 melanoma; [5]): 15.5 days
- T/C (B16 melanoma; [5]): 129%
- MST (median survival time) (B16 melanoma; Table 6, 0.5 mg/kg/day ip, QD × 9): 20.0 days
- MST (median survival time) (B16 melanoma; Table 6, 0.63 mg/kg/day (so in the source) ip, QD × 9): 18.0 days
- MST (median survival time) (B16 melanoma; [6]): 17.0 days
- T/C (B16 melanoma; [6]): 142%
- MST (median survival time) (B16 melanoma; Table 6, 1.0 mg/kg/day ip, QD × 9): 14.5 days
- MST (median survival time) (B16 melanoma; [7]): 18.0 days
- T/C (B16 melanoma; [7]): 150%
- MST (median survival time) (B16 melanoma; Table 6, 2.0 mg/kg/day ip, QD × 9): Tox.
- MST (median survival time) (B16 melanoma; [9]): 19.0 days
- T/C (B16 melanoma; [9]): 158%
- MST (median survival time) (B16 melanoma; [10]): 20.0 days
- T/C (B16 melanoma; [10]): 167%
